According to patent US20070264674A1, “Cytochrome P450 Induction Assay” (priority 2004, published 2007):

System: CAR or PXR
Experiment: Fresh human hepatocytes transfected with clone 102-SEAP only
Format: cell-based
Settings: 10 μM Rifampicin, 5 μM Clotrimazole, 10 μM TPP, 250 μM CITCO, 50 μM Artemisinin, about 48 h
Source text: In this example, clone 102-SEAP DNA was transfected into fresh human hepatocytes using the method of Example 6. […].

CO[C@H]1/C=C/O[C@@]2(C)Oc3c(C)c(O)c4c(O)c(c(/C=N/N5CCN(C)CC5)c(O)c4c3C2=O)NC(=O)/C(C)=C\C=C\[C@H](C)[C@H](O)[C@@H](C)[C@@H](O)[C@@H](C)[C@H](OC(C)=O)[C@@H]1C [Rifampicin]
induction of expression of the reporter gene (SEAP): inducers of expression of the reporter gene
